Key:
[1] = biological target: 5-hydroxytryptamine receptor 1A (Homo sapiens, UniProt P08908)
[2] = biological target: Alpha-2A adrenergic receptor (Homo sapiens, UniProt P08913)

Chains of the proteins cited; added tags and fusions are not shown.
UniProt P08908, whole entry: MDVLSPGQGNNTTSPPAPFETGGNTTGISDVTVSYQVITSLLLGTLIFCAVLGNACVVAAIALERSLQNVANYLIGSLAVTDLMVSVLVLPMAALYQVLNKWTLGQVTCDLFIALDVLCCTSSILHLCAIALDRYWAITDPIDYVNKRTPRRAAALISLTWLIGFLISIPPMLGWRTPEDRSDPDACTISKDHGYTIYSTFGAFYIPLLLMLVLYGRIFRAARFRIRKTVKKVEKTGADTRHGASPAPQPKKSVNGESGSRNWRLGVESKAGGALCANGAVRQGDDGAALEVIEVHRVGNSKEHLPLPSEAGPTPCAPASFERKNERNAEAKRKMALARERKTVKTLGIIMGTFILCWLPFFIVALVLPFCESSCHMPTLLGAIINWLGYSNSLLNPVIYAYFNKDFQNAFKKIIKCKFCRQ
UniProt P08913, whole entry: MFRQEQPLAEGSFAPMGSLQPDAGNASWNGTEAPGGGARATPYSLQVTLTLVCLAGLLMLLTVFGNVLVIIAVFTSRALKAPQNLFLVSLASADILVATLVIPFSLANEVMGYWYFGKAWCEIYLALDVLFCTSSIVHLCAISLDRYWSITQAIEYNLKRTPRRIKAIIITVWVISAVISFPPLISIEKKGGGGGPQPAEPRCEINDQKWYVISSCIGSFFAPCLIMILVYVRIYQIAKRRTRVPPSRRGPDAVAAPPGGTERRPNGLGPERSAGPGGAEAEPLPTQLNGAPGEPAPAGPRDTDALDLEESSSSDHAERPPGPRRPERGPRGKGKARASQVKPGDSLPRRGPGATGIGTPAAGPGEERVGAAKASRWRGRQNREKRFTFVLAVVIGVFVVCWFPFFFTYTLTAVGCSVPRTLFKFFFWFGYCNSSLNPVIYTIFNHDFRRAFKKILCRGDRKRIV

- Ki [1]: > 10 µM
- Ki [2]: 8.8 µM
Structure (SMILES): CNCCC(Oc1ccccc1C)c1ccccc1 (configuration not stated) [Methyl-(3-phenyl-3-o-tolyloxy-propyl)-amine(tomoxetine)]
